Source: ChEMBL document CHEMBL4613231 (Bioorg Med Chem, 2020)

Experiments:
[1] = Inhibition of TDP1 SCAN1 mutant (unknown origin) using 5'-(5,6 FAM-[…] C- BHQ1)-3' as substrate measured for every 1 min by fluorescence based assay
[2] = tested on: A549; assay: Potentiation of topotecan-induced cytotoxicity against human A549 cells at 1 uM after 72 hrs by MTT assay relative to control
[3] = tested on: A549; assay: Potentiation of topotecan-induced cytotoxicity against human A549 cells assessed as combination index at 1 uM after 72 hrs by MTT assay

| SMILES | IC50 [1] [µM] | fold change (FC) [2] | CI [3] [as printed] |
| --- | --- | --- | --- |
| Cc1c(CC(=O)NC(Cc2ccc(Cl)cc2)C(=O)O)c(=O)oc2c(C)c3occ(-c4ccc(F)cc4)c3cc12 (stereo unspecified) | > 100 |  |  |
| Cc1c(Cc2ccccc2)c(=O)oc2cc(OCC(=O)N[C@@H](CSCc3ccccc3)C(=O)O)ccc12 | > 100 |  |  |
| COc1cccc2cc(-c3cc(=O)oc4cc(OCC(C)=O)ccc34)c(=O)oc12 | > 100 |  |  |
| O=c1cc(-c2cc3ccccc3oc2=O)c2ccc(OCc3c(Cl)cccc3Cl)cc2o1 | 3.5 | 8 | 0.2 |
| CC(C)OCCCNC(=O)c1cc2c([nH]c3ccccc32)c(-c2ccc3c(c2)OCO3)n1 | > 100 |  |  |
| O=C(COc1cc2oc(=O)cc(-c3ccccc3)c2cc1Cl)NC[C@H]1CC[C@H](C(=O)O)CC1 | > 100 |  |  |
| Cc1c(CC(=O)N[C@@H](CSCc2ccccc2)C(=O)O)c(=O)oc2c(C)c3occ(-c4ccc(F)cc4)c3cc12 | 25.1 |  |  |
| COc1cccc2cc(-c3cc(=O)oc4c(C)c(OCc5ccc(Cl)cc5)ccc34)c(=O)oc12 | 6 | 4.5 | 0.1 |
| O=c1cc(-c2cc3ccccc3oc2=O)c2ccc(OCc3cccc4ccccc34)cc2o1 | > 100 |  |  |
| O=C(NCCc1c[nH]c2ccccc12)c1cc2c([nH]c3ccccc32)c(-c2ccc3c(c2)OCO3)n1 | 17.6 |  |  |
| O=c1cc(-c2cc3ccccc3oc2=O)c2ccc(OCc3ccccc3Cl)cc2o1 | 13.9 |  |  |
| CCCc1cc(=O)oc2c(C)c(OCC(=O)NC(Cc3c[nH]c4ccc(O)cc34)C(=O)O)ccc12 (stereo unspecified) | > 100 |  |  |
| Cc1oc2c(C)c3oc(=O)c(CC(=O)NCC(=O)O)c(C)c3cc2c1-c1ccccc1 | > 100 |  |  |
| O=C(NCCC1=CCCCC1)c1cc2c([nH]c3ccccc32)c(-c2ccc3c(c2)OCO3)n1 | 14.1 |  |  |
| COc1ccc(-c2cc(=O)oc3cc(OCC(=O)N[C@H](C(=O)O)c4ccccc4)ccc23)cc1 | > 100 |  |  |
| CC(C)C[C@H](N)C(=O)N1CCC(C(=O)N[C@@H](Cc2ccccc2)C(=O)NCc2ccccc2F)CC1 | > 100 |  |  |
| Cc1c(CCC(=O)N[C@@H](CSCc2ccccc2)C(=O)O)c(=O)oc2cc3oc4c(c3cc12)CCCC4 | > 100 |  |  |
